Earlier results on 1 compound are cited in US20140162261A1, “DETECTION KIT FOR IDENTIFYING GENOTYPE IN DEPRESSION PATIENTS AND METHOD OF USING THE SAME” (priority 2012, published 2014).

As for `Cc1nc2n(c(=O)c1CCN1CCC(c3noc4cc(F)ccc34)CC1)CCCC2` [Risperidone], in the series on 5-HT2 receptors, the “affinity with 5-HT2 receptors” value was “high affinity”. In addition, the “time to reach peak plasma concentration” value (after oral administration) was 1 to 2 h. Also, the “digestion (absorption) after oral administration” value (oral administration) is listed as “completely digested”.
